The values that follow are results of earlier work, collected in patent US9539301B2, “Melanotropin ligands for skin care” (THE ARIZONA BOARD OF REGENTS ON BEHALF OF THE UNIVERSITY OF …, priority 2011, dated 2017).

The chains behind the UniProt entries cited, without tags or fusion partners.
UniProt P32245, whole entry: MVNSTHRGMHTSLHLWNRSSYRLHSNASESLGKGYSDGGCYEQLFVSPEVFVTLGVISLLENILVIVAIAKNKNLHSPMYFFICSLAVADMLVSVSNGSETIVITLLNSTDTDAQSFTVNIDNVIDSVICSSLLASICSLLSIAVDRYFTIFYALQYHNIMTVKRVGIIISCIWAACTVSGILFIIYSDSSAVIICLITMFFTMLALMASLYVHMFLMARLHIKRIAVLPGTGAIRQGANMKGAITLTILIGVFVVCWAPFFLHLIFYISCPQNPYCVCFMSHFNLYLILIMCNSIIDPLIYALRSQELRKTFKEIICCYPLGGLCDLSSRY

By Ki is commonly meant a dissociation constant, usually derived from enzyme kinetics or from competition with a known ligand.

For the data set, the target named is MC4R (Homo sapiens, UniProt P32245). Conditions: read-out: Ki MC4R (values derived from literature); cited from earlier work.

Turning to `NC(=O)[C@H](Cc1c[nH]c2ccccc12)NC(=O)[C@H](CCCN=C(N)N)NC(=O)[C@@H](Cc1ccccc1)NC(=O)[C@H](Cc1cnc[nH]1)NC(=O)CCCc1ccccc1` [Compound 1, 4-phenylbutyryl-His-DPhe-Arg-Trp-NH2], the Ki was 7.3 nM.
